According to PubChem BioAssay AID1850 (Southern Research Specialized Biocontainment Screening …, 2009):

Test system: Salmonella Typhi PhoP-promoter GFP reporter, fluorescence, 4 h
Experiment: PhoP regulon inhibitors, Salmonella typhi PhoP promoter GFP reporter, confirmatory (AID 1850)

Compound `O=C(NNC(=S)Nc1ccc(Cl)c(Cl)c1)c1ccccn1` has an IC50 of 18.8 µM.
In the case of `O=C(N/N=C/c1ccc([N+](=O)[O-])o1)C1CC1`, the IC50 is reported as 36.6 µM.
`CCOC(=O)c1cn(CC)c2cc(N3CCN(C)CC3)c(F)cc2c1=O` gave an IC50 of 106 µM.
With `O=C(Nc1cccnc1)c1ccc([N+](=O)[O-])o1` the IC50 was 73 µM.
